Values of other authors as cited in patent publication US20230001221A1, “Methods of Treating Cancer with Alternating Electric Fields, Checkpoint Inhibitors, and Combination Chemotherapy” (Novocure GmbH, priority 2021, published 2023).

System: human and murine pancreatic cancer cell lines
Conditions: in-vitro, TTFields combined with the chemotherapy

O=c1[nH]cc(F)c(=O)[nH]1 [5-FU, fluorouracil]
cytotoxicity when combined with TTFields: enhanced cytotoxicity
